From publication PMC5153249
Where “and” joins values, the source holds several entries; their conditions need not be identical. Equal values may be shown once.

Columns and labels:
[1] = target: ternary complex eIF2•GDPNP•Met-tRNAi (S. cerevisiae) (UniProt P20459); test: native gel or EMSA; gel shift monitoring [35S]-Met-tRNAi; 1 µM eIF1, 1 µM eIF1A, 200 nM eIF2, 1 mM GDPNP, 1 nM Met-tRNAi, 500 nM eIF3 where present, no mRNA; 40S subunits titrated 10-320 nM; 1X Recon buffer, 26 °C, 2 h; apparent KD, Langmuir isotherm; single experiments
[2] = target: 48S pre-initiation complex (40S, eIF1, eIF1A, ternary complex, AUG-containing model mRNA) (S. cerevisiae) (UniProt P32911); test: native gel or EMSA; gel shift monitoring [35S]-Met-tRNAi; 48S PICs with 1 µM uncapped AUG-containing model mRNA (1 µM eIF1, 1 µM eIF1A, 200 nM eIF2, 1 mM GDPNP•Mg2+, 2 nM Met-tRNAi, 20 nM 40S); eIF3 titrated 30-500 nM; 1X Recon buffer, 26 °C, 2 h; apparent KD, Hill equation; single experiments; apparent affinities ≤ 30 nM likely upper limits
[3] = target: 48S pre-initiation complex (40S, eIF1, eIF1A, ternary complex, AUG-containing model mRNA) (S. cerevisiae) (UniProt P32911); test: other; 48S PIC, + mRNA
[4] = target: 43S pre-initiation complex (40S ribosomal subunit, eIF1, eIF1A and eIF2•GDPNP•Met-tRNAi ternary complex); called 48S PIC when AUG-containing model mRNA is added (yeast) (UniProt P32911); test: other; 43S PIC, no mRNA
[5] = target: 43S pre-initiation complex (40S, eIF1, eIF1A, ternary complex; no mRNA) (S. cerevisiae) (UniProt P32911); test: native gel or EMSA; gel shift monitoring [35S]-Met-tRNAi; 43S PICs without mRNA (1 µM eIF1, 1 µM eIF1A, 200 nM eIF2, 1 mM GDPNP•Mg2+, 2 nM Met-tRNAi, 30 nM 40S); eIF3 titrated 30-500 nM; 1X Recon buffer (30 mM HEPES-KOH pH 7.4, 100 mM KOAc, 3 mM Mg(OAc)2, 2 mM DTT), 26 °C, 2 h; apparent KD, Hill equation; single experiments; apparent affinities ≤ 30 nM likely upper limits
[6] = target: 43S pre-initiation complex (40S ribosomal subunit, eIF1, eIF1A and eIF2•GDPNP•Met-tRNAi ternary complex); called 48S PIC when AUG-containing model mRNA is added (yeast) (UniProt P32911); test: native gel or EMSA; eIF3 (30-500 nM) titrated into 48S PICs: 1 µM uncapped AUG-containing model mRNA, 20 nM 40S, 1 µM eIF1, 1 µM eIF1A, 200 nM eIF2, 1 mM GDPNP•Mg2+, 2 nM [35S]-Met-tRNAi; 26 °C, 2 h; apparent KD from a Hill fit
[7] = target: 43S pre-initiation complex (40S ribosomal subunit, eIF1, eIF1A and eIF2•GDPNP•Met-tRNAi ternary complex); called 48S PIC when AUG-containing model mRNA is added (yeast) (UniProt P32911); test: native gel or EMSA; eIF3 (30-500 nM) titrated into 43S PICs without mRNA: 30 nM 40S, 1 µM eIF1, 1 µM eIF1A, 200 nM eIF2, 1 mM GDPNP•Mg2+, 2 nM [35S]-Met-tRNAi; 1X Recon buffer (30 mM HEPES-KOH pH 7.4, 100 mM KOAc pH 7.6, 3 mM Mg(OAc)2, 2 mM DTT); 26 °C, 2 h; apparent KD from a Hill fit, free eIF3 corrected for free …

| Substance | Kd [3] | Kd [4] | other results |
| --- | --- | --- | --- |
| 40S•eIF1•eIF1A (no eIF3) (from UniProt P32911 1-108; P38912 1-153) (complex) | – | – | Kd [1]: 89.1 nM and 119 nM |
| 40S•eIF1•eIF1A with WT eIF3 (from UniProt P32911 1-108; P38912 1-153; P38249 1-964; P06103 1-763; P32497 1-812; P40217 1-347; Q04067 1-274) (complex) | – | – | Kd [1]: 15.6 nM and 13.8 nM |
| 40S•eIF1•eIF1A with eIF3 variant H725P (from UniProt P32911 1-108; P38912 1-153; P38249 1-964; P06103 1-763; P32497 1-812; P40217 1-347; Q04067 1-274) (complex) | – | – | Kd [1]: 8.42 nM and 14.6 nM |
| 40S•eIF1•eIF1A with eIF3 variant Q258R (from UniProt P32911 1-108; P38912 1-153; P38249 1-964; P06103 1-763; P32497 1-812; P40217 1-347; Q04067 1-274) (complex) | – | – | Kd [1]: 12.2 nM and 18.4 nM |
| 40S•eIF1•eIF1A with eIF3 variant R731I (from UniProt P32911 1-108; P38912 1-153; P38249 1-964; P06103 1-763; P32497 1-812; P40217 1-347; Q04067 1-274) (complex) | – | – | Kd [1]: 6.04 nM and 7.88 nM |
| 40S•eIF1•eIF1A with eIF3 variant ∆8 (from UniProt P32911 1-108; P38912 1-153; P38249 201-964; P06103 1-763; P32497 1-812; P40217 1-347; Q04067 1-274) (complex) | – | – | Kd [1]: 8.86 nM and 3.8 nM |
| 40S•eIF1•eIF1A with the eIF3a/b/c sub-complex (from UniProt P32911 1-108; P38912 1-153; P38249 1-964; P06103 1-763; P32497 1-812) | – | – | Kd [1]: 40.7 nM and 43.8 nM |
| eIF3 (wild type) (from UniProt P38249 1-964; P06103 1-763; P32497 1-812; P40217 1-347; Q04067 1-274) (complex) | – | – | Kd [2]: 37 nM and 38 nM |
| eIF3 variant Box6 (eIF3a/Tif32 CTD, alanine substitution of 692-701) (from UniProt P38249 1-964; P06103 1-763; P32497 1-812; P40217 1-347; Q04067 1-274) | < 38 nM | < 35 nM | – |
| eIF3 variant Box12-SPW (eIF3c/Nip1 NTD K111S/K114P/K116W) (from UniProt P38249 1-964; P06103 1-763; P32497 1-812; P40217 1-347; Q04067 1-274) | 69 nM | 67 nM | – |
| eIF3 variant Box37 (eIF3a/Tif32 NTD, alanine substitution of 361-370) (from UniProt P38249 1-964; P06103 1-763; P32497 1-812; P40217 1-347; Q04067 1-274) | 84 nM | 60 nM | – |
| eIF3 variant GAP^85 (eIF3c/Nip1 NTD, deletion of aa 60-144) (from UniProt P38249 1-964; P06103 1-763; P32497 1-812; P40217 1-347; Q04067 1-274) | < 38 nM | < 27 nM | – |
| eIF3 variant H725P (eIF3a/Tif32 CTD H725P) (from UniProt P38249 1-964; P06103 1-763; P32497 1-812; P40217 1-347; Q04067 1-274) | 63 nM | 79 nM | – |
| eIF3 variant H725P (eIF3a/Tif32 CTD) (from UniProt P38249 1-964; P06103 1-763; P32497 1-812; P40217 1-347; Q04067 1-274) (complex) | – | – | Kd [5]: 86 nM and 72 nM; Kd [2]: 63 nM and 62 nM |
| eIF3 variant KLF (eIF3g/Tif35 K194A/L235A/F237A) (from UniProt P38249 1-964; P06103 1-763; P32497 1-812; P40217 1-347; Q04067 1-274) | 53 nM | < 22 nM | – |
| eIF3 variant Q258R (eIF3i/Tif34 Q258R) (from UniProt P38249 1-964; P06103 1-763; P32497 1-812; P40217 1-347; Q04067 1-274) | 49 nM | < 30 nM | – |
| eIF3 variant Q258R (eIF3i/Tif34) (from UniProt P38249 1-964; P06103 1-763; P32497 1-812; P40217 1-347; Q04067 1-274) (complex) | – | – | Kd [5]: 33 nM and 27 nM; Kd [2]: 33 nM and 64 nM |
| eIF3 variant R731I (eIF3a/Tif32 CTD R731I) (from UniProt P38249 1-964; P06103 1-763; P32497 1-812; P40217 1-347; Q04067 1-274) | 50 nM | 113 nM | – |
| eIF3 variant R731I (eIF3a/Tif32 CTD) (from UniProt P38249 1-964; P06103 1-763; P32497 1-812; P40217 1-347; Q04067 1-274) (complex) | – | – | Kd [5]: 100 nM; Kd [2]: 55 nM |
| eIF3 variant prt1-1 (eIF3b/Prt1 S555F) (from UniProt P38249 1-964; P06103 1-763; P32497 1-812; P40217 1-347; Q04067 1-274) | 104 nM | 83 nM | – |
| eIF3 variant rnp1 (eIF3b/Prt1 RRM, alanine substitution of 124-130) (from UniProt P38249 1-964; P06103 1-763; P32497 1-812; P40217 1-347; Q04067 1-274) | 158 nM | 110 nM | – |
| eIF3 variant ∆8 (eIF3a/Tif32 NTD) (from UniProt P38249 201-964; P06103 1-763; P32497 1-812; P40217 1-347; Q04067 1-274) (complex) | – | – | Kd [5]: 84 nM and 90 nM; Kd [2]: 89 nM and 88 nM |
| eIF3 variant ∆8 (eIF3a/Tif32 NTD, N-terminal truncation of aa 1-200) (from UniProt P38249 201-964; P06103 1-763; P32497 1-812; P40217 1-347; Q04067 1-274) | 89 nM | 85 nM | – |
| eIF3 variant ∆8 (eIF3a/Tif32 NTD, N-terminal truncation of aa 1-200) (from UniProt P38249 201-964; P06103 1-763; P32497 1-812; P40217 1-347; Q04067 1-274) (complex) | – | – | fold decrease of apparent affinity against WT eIF3 [6]: 2 fold; fold decrease of apparent affinity against WT eIF3 [7]: < 2 fold |
| eIF3 variant ∆60 (eIF3c/Nip1 CTD, C-terminal truncation of aa 753-813) (from UniProt P38249 1-964; P06103 1-763; P32497 1-752; P40217 1-347; Q04067 1-274) | 47 nM | < 24 nM | – |
| wild-type eIF3 (S. cerevisiae eukaryotic translation initiation factor 3, five essential subunits) (from UniProt P38249 1-964; P06103 1-763; P32497 1-812; P40217 1-347; Q04067 1-274) (complex) | – | – | Kd [6]: < 38 nM; Kd [7]: < 38 nM |
